Laboratory results reported in patent US20060035844A1, “Preventive or remedy for diseases caused by hyperglycemia” (priority 2002, published 2006).

Tested on: male Wistar rats
Experiment: Effects of an SGLT1 inhibitor on absorption of fructose (fructose tolerance test, residual fructose in the gastrointestinal tract)
Assay type: in vivo, rat
Conditions: 0.2 g/kg fructose load, after 30 minutes, control 11.8 ± 2.1

O=C(CCc1ccc(O)cc1)c1c(O)cc(O)cc1O[C@@H]1O[C@H](CO)[C@@H](O)[C@H](O)[C@H]1O [Phlorizin, reference compound]
Residual fructose (% of dose) in the gastrointestinal tract (40 mg/kg oral, ** P<0.01): 22.5 ± 1.9 ** %
Residual fructose (% of dose) in the gastrointestinal tract (100 mg/kg oral, *** P<0.001): 32.2 ± 1.5 *** %
